Test results from publication PMC9071858, “Comparative Pharmacokinetics of Seven Major Compounds in Normal and Atherosclerosis Mice after Oral Administration of Simiao Yong'an Decoction” (Evidence-based Complementary and Alternative Medicine : eCAM, 2022).

Tests used:
[1] = Pharmacokinetic study in atherosclerosis (AS) model ApoE−/− mice after oral administration of SMYAD; type: in vivo, mouse; conditions: plasma, SMYAD intragastric 35 g/kg/d for seven days, mean ± SD, n = 5
Method: (§1) Male C57BL/6J mice and ApoE^−/− mice on a C57BL/6 background (7 weeks old, 18–22 g) were purchased from Beijing Vital River Laboratory Animal Technology Co., Ltd. (Beijing, China, Certificate No.: SCXK (Jing) 2016-0006). All the mice were kept in an SPF animal house (Dongzhimen Hospital Affiliated to Beijing University of Chinese Medicine, Certificate No.: SYXK (Jing) 2015-0001) with food and water freely available, 12 h light/dark, and environmental conditions of 22°C–24°C, 50% relative humidity. All protocols of animal experiments were performed in accordance with the National Guidelines for Laboratory Animal Welfare and were approved by the Animal Ethics Committee of Beijing University of Chinese Medicine (NO. BUCM-4-2015071701-3001). High-fat feeding (containing 15% fat and 0.25% cholesterol) was provided by Beijing HFK bioscience CO., LTD. (Beijing, China, Certificate No.: SCXK (Jing) 2014-0018).
The AS model was established by a high-fat diet and perivascular carotid collar placement (PCCP) surgery in the ApoE^−/− mice. After a 7-day adaptive feeding, the mice were given a high-fat diet for 2 weeks; before anesthesia, all ApoE^−/− mice were fasted for 12 hours. During the surgery, the right common carotid artery was exposed, and a silicone cannula (length: 2.5 mm, inner diameter: 0.3 mm) was fixed around the carotid artery (external diameter: about 0.5 mm). Penicillin was injected intraperitoneally for 3 days after surgery to prevent infection. High-fat diet continued for 8 weeks after surgery to establish AS model. Biochemical assays and hematoxylin and eosin (HE) staining were used to evaluate whether AS model was successfully established.
(§2) Normal control (NC) and AS mice (30 per group) were employed to investigate the pharmacokinetic properties of harpagide, chlorogenic acid, swertiamarin, sweroside, angoroside C, liquiritin, and isoliquiritigenin after the oral administration of SMYAD. After successful induction of AS model, SMYAD was administered to NC and AS mice by intragastric gavage at the crude drug dose of 35 g/kg/d for seven days. Blood samples were collected from each mouse in heparinized tubes via the postorbital venous plexus veins at 0, 0.25, 0.5, 1, 2, 4, 6, 8, 10, 12, 18, and 24 h after seven days of drug administration. Then blood samples were immediately centrifuged at 3500 rpm at 4°C for 10 min and the plasma was stored at −80°C until use.
(§3) Each plasma sample (100 μL) was mixed with a threefold volume of methanol and 25 μL IS in a 1.5 mL EP tube. Then the mixture was vortexed for 100 seconds and centrifuged at 12,000 rpm for 10 min at 4°C. The supernatant was transferred to another EP tube and evaporated to dryness under a nitrogen vacuum. The residue was reconstituted with 100 μL of 50% methanol and centrifuged at 15,000 rpm for 15 min. Then the supernatant was transferred to sample vials for the LC-MS analysis.
(§4) A Vanquish UHPLC™ system (Thermo Fisher Scientific Inc., USA) was used for the analysis. Samples were separated on an Atlantis T3 column (4.6 mm × 150 mm, 3 μm; Waters, USA). The column temperature was 40°C. The mobile phase, at 0.4 mL/min, consisted of water containing 0.1% formic acid (v/v, A) and methanol (B). The quantitative analysis gradient program was as follows: 0-1 min, 0 B; 1–6 min, 0–100% B; 6–12 min, 100% B; 12–12.1 min, 100%-0 B; 12.1–15 min, 0 B. The injection volume was 5 μL.
The mass spectrometer Q Exactive HF-X (Thermo Fisher Scientific Inc., USA) system was connected to the UHPLC system via heated electrospray ionization (HESI) and controlled by Xcalibur 4.2 software (Thermo Fisher) that was used for data collection and analysis. The mass spectrometer was operated in a negative ionization mode. […]

[2] = Pharmacokinetic study in normal control (NC) mice after oral administration of SMYAD; type: in vivo, mouse; conditions: plasma, SMYAD intragastric 35 g/kg/d for seven days, mean ± SD, n = 5
Method: as §1, §2, §3, §4
The mass spectrometer Q Exactive HF-X (Thermo Fisher Scientific Inc., USA) system was connected to the UHPLC system via heated electrospray ionization (HESI) and controlled by Xcalibur 4.2 software (Thermo Fisher) that was used for data collection and analysis. The mass spectrometer was operated in a negative ionization mode. The MS parameters were set as follows: probe heater temperature, 350°C; capillary temperature: 320°C; sheath gas (N2) flow rate: 30 arbs; auxiliary gas (N2) flow rate: 10 arbs; spray voltage: 3.2 kV (negative); S-Lens RF level: 55 V; scan mode: full MS (resolution 12000); scan range: m/z 150–1500. The most abundant ions in the spectra were selected for sensitive quantitation ([M-H]^−of chlorogenic acid, angoroside C, liquiritin, isoliquiritigenin, and IS, [M + COOH]^− of harpagide, swertiamarin, and sweroside). The m/z of harpagide was 409.13405, chlorogenic acid was 353.08671, swertiamarin was 419.11840, sweroside was 403.12349, angoroside C was 783.27061, liquiritin was 417.11801, isoliquiritigenin was 255.06519, and IS was 591.17083. […]

[3] = Stability of analytes in QC plasma samples; type: in vitro ADME, mouse; conditions: n = 5
Method: Standard calibration curves were constructed by spiking 100 μL of blank mouse plasma with 25 μL of the standard working solutions and 25 μL of the IS working solution, yielding final plasma concentrations in the range of 2–1500 ng/mL for harpagide, 1–2000 ng/mL for chlorogenic acid, 5–12000 ng/mL for swertiamarin, 5–2500 ng/mL for sweroside, 5–500 ng/mL for angoroside C and liquiritin, and 2–500 ng/mL for isoliquiritigenin.
Quality control (QC) samples at three concentration levels (38.4, 240, and 600 ng/mL for harpagide; 51.2, 320, and 800 ng/mL for chlorogenic acid; 307.2, 1920, and 4800 ng/mL for swertiamarin; 64, 400, and 1000 ng/mL for sweroside; 12.8, 80, and 200 ng/mL for angoroside C, liquiritin, and isoliquiritigenin) were prepared by the same operation described above. All solutions were stored at 4°C.
Stability was evaluated as five replicate QC samples at two concentration levels (see Table 5).

[4] = high QC level (600 harpagide, 800 chlorogenic acid, 4800 swertiamarin, 1000 sweroside, 200 others ng/ml)
[5] = low QC level ([…] harpagide, 51.2 chlorogenic acid, 307.2 swertiamarin, 64 sweroside, 12.8 others ng/ml)

## harpagide
[1]
  AUC0–t: 11075.09 ± 2132.38^∗∗ ng·mL^−1·h
  AUC0–∞: 16221.95 ± 5622.42^∗ ng·mL^−1·h
  C max: 0.93974 ± 0.18083 µg/mL
  CLz/F: 2.45 ± 0.87^∗∗ L/h/mg
  Vz/F: 24.34 ± 16.57 L/mg
  t 1/2: 8.55 ± 3.97 h
  t max: 4.00 ± 0.00 h
[2]
  AUC0–t: 6.93617 ± 0.53323 µg·h/mL
  AUC0–∞: 7.19433 ± 0.58834 µg·h/mL
  C max: 0.8384 ± 0.12654 µg/mL
  CLz/F: 81700 ± 6670 µL/min/mg
  Vz/F: 32.74 ± 7.64 L/mg
  t 1/2: 8.40 ± 1.80 h
  t max: 6.00 ± 2.19 h
[3]; [4]
  Freeze-thaw stability 3 freeze-thaw cycles Accuracy RE: −2.09%
  Freeze-thaw stability 3 freeze-thaw cycles Calc. conc.: 587.47 ± 36.62 ng/mL
  Long-term stability −20°C for 30 d Accuracy RE: 2.15%
  Long-term stability −20°C for 30 d Calc. conc.: 612.90 ± 22.28 ng/mL
  Postpreparative stability 24 h in the autosampler (4°C) Accuracy RE: −4.08%
  Postpreparative stability 24 h in the autosampler (4°C) Calc. conc.: 575.51 ± 22.16 ng/mL
  Short-term stability 24 h in room temperature (20°C) Accuracy RE: 9.08%
  Short-term stability 24 h in room temperature (20°C) Calc. conc.: 654.47 ± 22.87 ng/mL
[3]; [5]
  Freeze-thaw stability 3 freeze-thaw cycles Accuracy RE: −0.92%
  Freeze-thaw stability 3 freeze-thaw cycles Calc. conc.: 38.05 ± 4.19 ng/mL
  Long-term stability −20°C for 30 d Accuracy RE: 5.94%
  Long-term stability −20°C for 30 d Calc. conc.: 40.68 ± 3.21 ng/mL
  Postpreparative stability 24 h in the autosampler (4°C) Accuracy RE: −0.13%
  Postpreparative stability 24 h in the autosampler (4°C) Calc. conc.: 38.35 ± 3.75 ng/mL
  Short-term stability 24 h in room temperature (20°C) Accuracy RE: 2.45%
  Short-term stability 24 h in room temperature (20°C) Calc. conc.: 39.34 ± 1.92 ng/mL
